Assay [1] concerns CTV-1 T acute lymphoblastic leukemia cells. Nature of the assay: Cell proliferation assay CTV-1. The following applies: read-out: IC50 value, CTV-1 cells, 72 hours. On the procedure: (§1) CTV-1 T acute lymphoblastic leukemia cells were purchased from Deutsche Sammlung von Mikroorganismen und Zellkulturen (cat. no. ACC 40, DSMZ). Frozen stocks were thawed and cells were diluted in RPMI-1640 cell culture medium (cat. no. 61870036, Life Technologies), supplemented with 10% (v/v) bovine calf serum and 1% penicillin/streptavidin. 1600 cells per well (in 45 μl) were seeded in a white 384-well culture plate (cat. no. 781080, Greiner Bio-One) and allowed to rest for 24 hours at 37 °C, 95% humidity, and 5% CO2. 5 μl compound solution was added to the cells and incubation was continued for 72 hours (3 days), followed by addition of 24 μl ATPlite 1Step™ (PerkinElmer, Groningen, The Netherlands) solution was added to each well. Luminescence was recorded on an Envision multimode reader. The cell signal at the start of incubation was recorded separately in order to distinguish between cell population growth and cell death. In addition, maximum growth was determined by incubation of a duplicate without compound in the presence of 0.3% DMSO. Percentage growth was used as the main y-axis signal. IC50s were fitted by non-linear regression using IDBS XLfit™5 using a 4-parameter logistic curve, yielding a maximum signal, minimum signal, hill-parameter and IC50.

Sequences of proteins named here, by UniProt entry; tags and fusion partners are left off. Residues count along the entry.
UniProt P06239, whole entry: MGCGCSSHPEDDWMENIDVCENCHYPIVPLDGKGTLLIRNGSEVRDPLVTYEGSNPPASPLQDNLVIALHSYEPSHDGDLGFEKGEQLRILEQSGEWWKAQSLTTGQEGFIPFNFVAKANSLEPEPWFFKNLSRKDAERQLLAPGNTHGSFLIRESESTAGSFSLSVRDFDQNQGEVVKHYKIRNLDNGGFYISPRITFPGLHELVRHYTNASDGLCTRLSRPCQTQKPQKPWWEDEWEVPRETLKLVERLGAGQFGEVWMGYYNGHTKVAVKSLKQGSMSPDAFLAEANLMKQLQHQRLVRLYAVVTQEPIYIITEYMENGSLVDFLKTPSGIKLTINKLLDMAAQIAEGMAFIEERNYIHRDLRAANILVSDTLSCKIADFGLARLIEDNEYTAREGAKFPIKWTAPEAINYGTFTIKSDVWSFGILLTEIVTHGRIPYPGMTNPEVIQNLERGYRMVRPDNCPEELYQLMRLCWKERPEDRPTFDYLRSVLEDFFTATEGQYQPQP
UniProt P08581, 25-1390 limits assumed: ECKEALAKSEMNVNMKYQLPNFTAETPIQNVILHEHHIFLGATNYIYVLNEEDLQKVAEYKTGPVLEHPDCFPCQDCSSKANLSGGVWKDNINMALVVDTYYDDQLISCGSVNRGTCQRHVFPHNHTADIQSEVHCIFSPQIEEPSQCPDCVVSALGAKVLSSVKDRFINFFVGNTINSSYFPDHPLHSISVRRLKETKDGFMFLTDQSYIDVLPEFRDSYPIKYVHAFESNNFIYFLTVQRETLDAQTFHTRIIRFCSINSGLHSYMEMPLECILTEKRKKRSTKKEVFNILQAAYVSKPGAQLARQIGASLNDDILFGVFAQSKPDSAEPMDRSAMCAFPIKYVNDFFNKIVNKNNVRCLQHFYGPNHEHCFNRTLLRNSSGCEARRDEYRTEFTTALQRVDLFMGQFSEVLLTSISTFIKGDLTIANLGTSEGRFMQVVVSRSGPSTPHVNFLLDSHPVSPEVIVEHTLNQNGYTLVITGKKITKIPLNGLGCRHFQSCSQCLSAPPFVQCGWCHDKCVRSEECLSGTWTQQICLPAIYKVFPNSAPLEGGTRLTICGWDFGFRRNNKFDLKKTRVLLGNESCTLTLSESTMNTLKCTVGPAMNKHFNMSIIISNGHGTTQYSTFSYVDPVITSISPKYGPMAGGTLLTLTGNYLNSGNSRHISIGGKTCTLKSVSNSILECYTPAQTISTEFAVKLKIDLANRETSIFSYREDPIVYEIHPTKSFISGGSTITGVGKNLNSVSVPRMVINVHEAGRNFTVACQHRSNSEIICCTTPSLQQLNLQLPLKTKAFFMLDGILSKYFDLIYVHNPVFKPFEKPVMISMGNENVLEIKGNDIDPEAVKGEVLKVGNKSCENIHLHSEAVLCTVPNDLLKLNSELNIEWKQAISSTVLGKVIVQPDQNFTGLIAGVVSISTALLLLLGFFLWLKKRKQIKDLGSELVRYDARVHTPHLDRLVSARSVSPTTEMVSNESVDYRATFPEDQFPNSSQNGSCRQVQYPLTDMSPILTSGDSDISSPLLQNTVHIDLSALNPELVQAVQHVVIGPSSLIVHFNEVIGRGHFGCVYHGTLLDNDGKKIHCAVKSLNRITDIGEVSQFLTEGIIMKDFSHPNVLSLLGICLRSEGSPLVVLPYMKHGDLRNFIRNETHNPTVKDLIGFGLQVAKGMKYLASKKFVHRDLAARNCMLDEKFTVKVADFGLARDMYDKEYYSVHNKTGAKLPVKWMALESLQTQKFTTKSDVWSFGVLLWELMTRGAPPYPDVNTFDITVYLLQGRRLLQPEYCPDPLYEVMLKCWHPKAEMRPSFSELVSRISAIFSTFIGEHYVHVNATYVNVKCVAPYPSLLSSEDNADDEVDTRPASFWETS
UniProt P00533, 25-1210 limits assumed: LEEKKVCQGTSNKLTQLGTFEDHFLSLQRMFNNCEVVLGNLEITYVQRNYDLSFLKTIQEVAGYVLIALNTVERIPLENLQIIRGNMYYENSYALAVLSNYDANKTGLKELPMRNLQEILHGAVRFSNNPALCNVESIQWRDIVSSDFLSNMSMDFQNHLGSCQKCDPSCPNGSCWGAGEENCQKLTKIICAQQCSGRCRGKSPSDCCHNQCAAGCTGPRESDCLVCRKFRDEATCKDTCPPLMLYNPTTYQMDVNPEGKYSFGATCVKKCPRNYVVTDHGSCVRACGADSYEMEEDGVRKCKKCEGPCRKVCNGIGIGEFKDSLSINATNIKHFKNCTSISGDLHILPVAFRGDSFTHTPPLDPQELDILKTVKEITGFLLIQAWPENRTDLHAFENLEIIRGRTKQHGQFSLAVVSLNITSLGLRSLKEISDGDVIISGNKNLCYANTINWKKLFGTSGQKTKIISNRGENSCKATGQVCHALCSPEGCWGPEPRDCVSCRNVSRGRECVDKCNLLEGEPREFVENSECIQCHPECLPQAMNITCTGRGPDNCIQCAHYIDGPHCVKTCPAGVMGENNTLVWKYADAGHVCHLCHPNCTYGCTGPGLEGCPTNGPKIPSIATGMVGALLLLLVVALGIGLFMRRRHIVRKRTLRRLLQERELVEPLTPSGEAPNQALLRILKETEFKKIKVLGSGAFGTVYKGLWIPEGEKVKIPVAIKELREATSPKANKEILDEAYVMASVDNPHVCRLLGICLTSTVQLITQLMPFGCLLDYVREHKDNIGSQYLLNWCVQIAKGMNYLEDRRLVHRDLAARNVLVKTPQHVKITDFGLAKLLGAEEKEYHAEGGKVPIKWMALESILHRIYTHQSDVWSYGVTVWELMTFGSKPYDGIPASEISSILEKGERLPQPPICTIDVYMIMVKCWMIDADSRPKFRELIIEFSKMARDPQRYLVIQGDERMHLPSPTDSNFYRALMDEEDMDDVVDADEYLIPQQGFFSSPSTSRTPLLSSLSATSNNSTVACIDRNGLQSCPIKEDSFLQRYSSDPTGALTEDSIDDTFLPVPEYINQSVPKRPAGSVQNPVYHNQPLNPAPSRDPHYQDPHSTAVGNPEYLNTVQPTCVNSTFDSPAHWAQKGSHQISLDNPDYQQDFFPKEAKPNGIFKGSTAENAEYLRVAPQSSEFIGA
UniProt P30530, 26-894 limits assumed: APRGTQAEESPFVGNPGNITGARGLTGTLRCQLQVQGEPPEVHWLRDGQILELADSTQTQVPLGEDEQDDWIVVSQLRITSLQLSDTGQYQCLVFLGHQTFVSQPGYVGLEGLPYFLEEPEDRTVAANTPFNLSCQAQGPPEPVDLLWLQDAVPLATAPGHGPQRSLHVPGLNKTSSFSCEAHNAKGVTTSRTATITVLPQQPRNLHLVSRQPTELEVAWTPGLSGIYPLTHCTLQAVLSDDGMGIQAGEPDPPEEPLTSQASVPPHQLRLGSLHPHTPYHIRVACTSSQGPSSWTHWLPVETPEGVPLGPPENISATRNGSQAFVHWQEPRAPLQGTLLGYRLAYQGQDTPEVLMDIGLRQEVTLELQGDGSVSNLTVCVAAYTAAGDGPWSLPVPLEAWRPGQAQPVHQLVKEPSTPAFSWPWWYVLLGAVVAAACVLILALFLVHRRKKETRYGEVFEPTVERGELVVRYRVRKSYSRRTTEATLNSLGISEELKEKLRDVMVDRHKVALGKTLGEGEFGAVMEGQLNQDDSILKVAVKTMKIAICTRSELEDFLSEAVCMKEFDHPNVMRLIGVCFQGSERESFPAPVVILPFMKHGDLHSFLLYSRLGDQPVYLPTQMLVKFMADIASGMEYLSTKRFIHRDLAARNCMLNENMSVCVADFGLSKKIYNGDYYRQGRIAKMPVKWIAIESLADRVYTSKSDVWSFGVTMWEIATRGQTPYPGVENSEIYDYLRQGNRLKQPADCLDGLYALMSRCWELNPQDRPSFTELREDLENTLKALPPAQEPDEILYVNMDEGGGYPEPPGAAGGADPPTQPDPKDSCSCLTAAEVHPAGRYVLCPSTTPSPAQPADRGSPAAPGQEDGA
UniProt P07949, 29-1114 limits assumed: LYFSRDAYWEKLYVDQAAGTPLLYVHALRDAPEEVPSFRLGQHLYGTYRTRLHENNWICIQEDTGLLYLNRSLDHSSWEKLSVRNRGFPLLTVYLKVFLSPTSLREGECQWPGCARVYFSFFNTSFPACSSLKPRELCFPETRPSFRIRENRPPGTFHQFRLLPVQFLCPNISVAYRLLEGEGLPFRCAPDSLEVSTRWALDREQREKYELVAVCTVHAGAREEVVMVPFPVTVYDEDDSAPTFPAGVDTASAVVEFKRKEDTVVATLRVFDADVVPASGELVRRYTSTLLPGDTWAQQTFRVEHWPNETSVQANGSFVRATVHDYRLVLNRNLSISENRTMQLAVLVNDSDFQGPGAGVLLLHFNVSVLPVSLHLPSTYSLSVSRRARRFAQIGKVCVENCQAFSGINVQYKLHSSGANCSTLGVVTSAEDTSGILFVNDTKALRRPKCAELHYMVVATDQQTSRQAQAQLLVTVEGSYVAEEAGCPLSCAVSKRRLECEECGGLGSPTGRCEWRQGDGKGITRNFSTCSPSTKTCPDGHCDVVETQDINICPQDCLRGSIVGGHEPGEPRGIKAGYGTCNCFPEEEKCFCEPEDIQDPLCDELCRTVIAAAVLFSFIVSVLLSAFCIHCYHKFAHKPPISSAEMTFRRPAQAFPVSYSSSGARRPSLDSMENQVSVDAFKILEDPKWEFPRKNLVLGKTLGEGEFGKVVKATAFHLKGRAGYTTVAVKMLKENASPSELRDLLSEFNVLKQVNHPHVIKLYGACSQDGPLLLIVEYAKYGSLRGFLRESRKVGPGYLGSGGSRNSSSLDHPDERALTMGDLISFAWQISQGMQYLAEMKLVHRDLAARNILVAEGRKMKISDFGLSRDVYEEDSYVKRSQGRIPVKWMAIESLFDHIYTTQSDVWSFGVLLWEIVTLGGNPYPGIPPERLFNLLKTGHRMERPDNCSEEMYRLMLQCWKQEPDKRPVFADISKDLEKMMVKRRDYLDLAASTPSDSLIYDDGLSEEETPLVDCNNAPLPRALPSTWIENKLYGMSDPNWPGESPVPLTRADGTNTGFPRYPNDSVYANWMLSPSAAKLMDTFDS
UniProt P07947, whole entry: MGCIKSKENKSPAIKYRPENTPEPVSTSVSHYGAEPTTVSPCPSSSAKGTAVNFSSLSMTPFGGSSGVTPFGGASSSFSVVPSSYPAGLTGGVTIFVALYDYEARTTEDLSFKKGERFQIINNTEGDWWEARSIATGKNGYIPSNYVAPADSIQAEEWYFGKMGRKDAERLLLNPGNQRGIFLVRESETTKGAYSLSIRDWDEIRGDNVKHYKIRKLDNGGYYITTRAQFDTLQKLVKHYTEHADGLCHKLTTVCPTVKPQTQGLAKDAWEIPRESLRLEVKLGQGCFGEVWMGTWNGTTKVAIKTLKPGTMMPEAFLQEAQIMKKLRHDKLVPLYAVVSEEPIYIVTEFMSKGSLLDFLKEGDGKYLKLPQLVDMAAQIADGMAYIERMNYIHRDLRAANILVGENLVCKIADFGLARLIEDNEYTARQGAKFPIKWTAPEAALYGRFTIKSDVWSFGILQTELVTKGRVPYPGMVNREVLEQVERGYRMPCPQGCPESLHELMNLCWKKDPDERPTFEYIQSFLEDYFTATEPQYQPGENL
UniProt P12931, whole entry: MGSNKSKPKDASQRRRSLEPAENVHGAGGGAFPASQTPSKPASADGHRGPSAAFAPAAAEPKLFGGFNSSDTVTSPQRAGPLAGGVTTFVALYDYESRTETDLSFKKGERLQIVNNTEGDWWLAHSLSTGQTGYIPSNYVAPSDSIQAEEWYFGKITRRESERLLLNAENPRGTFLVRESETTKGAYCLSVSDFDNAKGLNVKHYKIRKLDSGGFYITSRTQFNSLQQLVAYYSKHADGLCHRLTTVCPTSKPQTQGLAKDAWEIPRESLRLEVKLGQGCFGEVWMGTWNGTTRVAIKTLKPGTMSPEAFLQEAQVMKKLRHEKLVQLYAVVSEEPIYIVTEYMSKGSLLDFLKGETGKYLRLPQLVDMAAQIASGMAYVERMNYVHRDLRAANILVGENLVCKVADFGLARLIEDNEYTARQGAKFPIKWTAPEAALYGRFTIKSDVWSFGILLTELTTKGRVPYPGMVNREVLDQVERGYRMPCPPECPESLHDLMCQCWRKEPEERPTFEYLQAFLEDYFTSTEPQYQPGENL

The subject of assay [2] is CCRF-HSB-2 T acute lymphoblastic leukemia cells. As to the kind of experiment: Cell proliferation assay CCRF-HSB-2. The following applies: read-out: IC50 value, CCRF-HSB-2 cells, 72 hours. On the procedure: as §1, with “CCRF-HSB-2” for “CTV-1”, “435,” for “40,”, “3200” for “1600”
A further assay deals with LCK (Homo sapiens, UniProt P06239). As to the kind of experiment: Binding kinetics assay (surface plasmon resonance) LCK. Conditions: SPR, 22 °C. An excerpt:
(§2) Binding Kinetics Assay wt-BTK, BTK C481S, LCK, FGFR1, FLT3, PDGFR-β, FMS, LYN, MEK1, AUR-B. ITK. VEGFR, EGFR, FGFR3, AXL, c-MET, SRC, YES, ABL, RET and IGFR1 (Surface Plasmon Resonance)
(§3) Streptavidin-coated chips (Cat. No. BR100531), disposables and maintenance kits for Biacore were purchased from Cytiva (Eindhoven, The Netherlands). Biotinylated wt-BTK enzym (Carna Biosciences, cat. no. 08-480-20N), BTK C481S (Carna Biosciences, cat. no. 08-417-20N), LCK (Carna Biosciences, cat. no. 08-470-20N), FGFR1 (Carna Biosciences, cat. no. 08-435-20N), FLT3 (Carna Biosciences, cat. no. 08-454-20N), PDGFR-β (Carna Biosciences, cat. no. 08-458-20N), FMS (Carna Biosciences, cat. no. 08-455-20N), LYN (Carna Biosciences, cat. no. 08-471-20N), MEK1 (Carna Biosciences, cat. no. 07-441-10-20N), AUR-B (Carna Biosciences, cat. no. 05-402-21N), ITK (Carna Biosciences, cat. no. 08-481-20N), VEGFR (Carna Biosciences, cat. no. 08-491-20N), EGFR (Carna Biosciences, cat. no. 08-415-20N), FGFR3 (Carna Biosciences, cat. no. 08-433-20N), AXL (Carna Biosciences, cat. no. 08-407-20N), c-MET (Carna Biosciences, cat. no. 08-451-20N), SRC (Carna Biosciences, cat. no. 08-473-20N), YES (Carna Biosciences, cat. no. 08-475-20N), ABL (Carna Biosciences, cat. no. 08-401-20N), RET (Carna Biosciences, cat. no. 08-459-20N) or IGFR1 (Carna Biosciences, cat. no. 08-441-20N) were immobilized on a streptavidin-coated chip to a level of about 8000 resonance units (RU) using Biacore buffer (50 mM Tris pH 7.5, 0.05% (v/v) Tween-20, 150 mM NaCl and 5 mM MgCl2)+1 mM TCEP. Remaining streptavidin was blocked with biocytin. Immobilization was performed at 4 °C. Subsequent assay steps were conducted at 22 °C. After changing buffer to Biacore buffer with 1% (v/v) dimethylsulfoxide (DMSO), a pre-run was performed for a period of at least 30 min at a flow rate of 30 μl/min to obtain a stable surface. The kinetic constants of the compounds were determined with single cycle kinetics with five consecutive injections with an increasing compound concentration with ranges of 3.16-316 nM. Experiments were performed with an association time of 100 s per concentration and a dissociation time of 1200 s, except for compounds with a long target residence time, such as irreversible inhibitors, where dissociation time was increased. To circumvent problems of mass transport limitation, a flow rate of 30 μl/min was used. A blank run with the same conditions was performed before the compound was injected. The SPR sensorgrams were analyzed with Biacore Evaluation Software by using a method of double referencing. First the reference channel was subtracted from the channel containing immobilized protein. Subsequently, the reference curve obtained with buffer injections was subtracted. The resulting curve was fitted with a 1:1 binding model. Compounds that bound according to an induced fit model were fitted with a two-state reaction model. The kinetic constants (ka, ka, KD) of duplicates were geometrically averaged. Target residence time (τ) for the 1:1 binding model was calculated from the dissociation constant kd with the formula T=1/kd. Target residence for an induced fit model was calculated as described (Tummino and Copeland, 2008).
For orientation: In SPR one partner is held on a chip, and binding of the other changes the refractive index at the surface.

For the next assay, the target named is c-Met (Homo sapiens, UniProt P08581). Nature of the assay: Binding kinetics assay (surface plasmon resonance) c-MET. The following applies: SPR, 22 °C.
Text: as §2
as §3, with “First the reference channel was subtracted from the channel containing immobilized protein. Subsequently, the reference curve obtained with buffer injections was subtracted. The resulting curve was fitted with a 1:1 binding model. Compounds that bound according to an induced fit model were fitted with a two-state reaction model. The kinetic constants (ka, ka, KD) of duplicates were geometrically averaged.” left out

Another assay has as its target EGFR (Homo sapiens, UniProt P00533). As to the kind of experiment: Binding kinetics assay (surface plasmon resonance) EGFR. Conditions: SPR, 22 °C.
Text: as §2, §3

The target in a further assay is AXL (Homo sapiens, UniProt P30530). As to the kind of experiment: Binding kinetics assay (surface plasmon resonance) AXL. Conditions: SPR, 22 °C.
Text: as §2, §3

The target in assay [3] is T1, RET (Homo sapiens, UniProt P07949). As to the kind of experiment: Biochemical kinase assay RET (33P-ATP filter binding). The following applies: read-out: IC50 value; RET 2 nM, 10 μM ATP, 20 min pre-incubation, 120 min reaction. As to the method:
Biochemical Kinase Assay RET
The kinase activity of RET was assayed at Reaction Biology Corporation. The substrate in the RET reaction, TRK-C derived peptide (Genscript, Cat. #U4552FL280_1), was prepared in fresh reaction buffer (20 mM HEPES (pH 7.5), 10 mM MgCl2, 1 mM EGTA, 0.01% Brij35, 0.02 mg/mL BSA, 0.1 mM Na3VO4, 2 mM DTT, 1% DMSO). RET (Invitrogen, Cat. #PV3819) was delivered into the substrate solution and mixed gently. The final concentrations of RET and the substrate in the reaction were 2 nM and 20 μM respectively. Compounds were tested in 10-point concentration/response mode with 3-fold serial dilution steps starting at 10 μM.
Compounds in 100% DMSO were delivered into the kinase reaction mixture by acoustic liquid delivery technology (ECHO550; nanoliter range) and incubated for 20 min at room temperature. 10 μM [^33P]-ATP (ATP: Sigma, Cat #: A7699; [^33P]-ATP: Hartmann Analytic, Cat #: SCF-301-12) was delivered into the reaction mixture to initiate the reaction. The mixture was incubated for 120 min at room temperature. Radioactivity was detected utilizing a proprietary filter-binding method. Kinase activity data were expressed as the percent remaining activity in test samples compared to vehicle (DMSO) reactions. IC50 values and curve fits were obtained using Prism4Software (GraphPad).

In assay [4] the test system is KG-1 acute myeloid leukemia cells. Nature of the assay: Cell proliferation assay KG-1. Conditions: read-out: IC50 value, KG-1 cells, 72 hours. As to the method: KG-1 acute myeloid leukemia cells were purchased from American Type Culture Collection (cat. no. CCL-246, ATCC). Frozen stocks were thawed and cells were diluted in IMDM cell culture medium (cat. no. 31980022, Life Technologies), supplemented with 20% (v/v) fetal calf serum and 1% penicillin/streptavidin. 3200 cells per well (in 45 μl) were seeded in a white 384-well culture plate (cat. no. 781080, Greiner Bio-One) and allowed to rest for 24 hours at 37 °C, 95% humidity, and 5% CO2. 5 μl compound solution was added to the cells and incubation was continued for 72 hours (3 days), followed by addition of 24 μl ATPlite 1Step™ (PerkinElmer, Groningen, The Netherlands) solution was added to each well. Luminescence was recorded on an Envision multimode reader. The cell signal at the start of incubation was recorded separately in order to distinguish between cell population growth and cell death. In addition, maximum growth was determined by incubation of a duplicate without compound in the presence of 0.3% DMSO. Percentage growth was used as the main y-axis signal.
IC50s were fitted by non-linear regression using IDBS XLfit™5 using a 4-parameter logistic curve, yielding a maximum signal, minimum signal, hill-parameter and IC50.

A further assay deals with YES (Homo sapiens, UniProt P07947). Nature of the assay: Binding kinetics assay (surface plasmon resonance) YES. Conditions: SPR, 22 °C.
Text: as §2, §3

In assay [5] the target is T1, RET. Nature of the assay: Binding kinetics assay (surface plasmon resonance) RET. Conditions: SPR, 22 °C.
Text: as §2, §3

The target in the next assay is SRC (Homo sapiens, UniProt P12931). Nature of the assay: Binding kinetics assay (surface plasmon resonance) SRC. Conditions: SPR, 22 °C.
Text: as §2, §3

Molecules are shown by their SMILES.

Usually IC50 stands for the midpoint of a concentration-inhibition curve. The Kd is the equilibrium constant for the complex coming apart. Low readings indicate tighter binding, high ones weaker binding. In the case of `COc1cc(-c2nn3c4c(cnc(N)c24)/C=C/CCCCCCC(=O)N2CCC[C@@H]3C2)ccc1NC(=O)c1cc2c(OC)cccc2n1C`, the IC50 in assay [1] was less than 50 nM. For the same compound, the IC50 in assay [2] is less than 50 nM. On LCK, the Kd is less than 5 nM; the “Target residence time Tau (τ)” value is “B (τ between 1 and 3 h)”.
As for `C[C@@H]1CCn2nc(-c3ccc(OCc4cccc(F)c4)c(Cl)c3)c3c(N)ncc(c32)/C=C/CCCCCC(=O)N1`, the Kd on c-Met is 50 to 500 nM; on EGFR it was 5 to 50 nM; at AXL, less than 5 nM. Further, the “Target residence time Tau (τ)” value was “A (τ between 0.2 h and 1 h)” at c-Met; “A (τ between 0.2 h and 1 h)” at EGFR.
With `Nc1ncc2c3c1c(-c1cnc4[nH]ccc4c1)nn3[C@@H]1CCCN(C1)C(=O)CCCCCC/C=C/2`, the IC50 at RET [3] was less than 5 nM; in assay [4], less than 300 nM. Moreover, the Kd is 5 to 50 nM on YES, less than 5 nM at RET [5] and 5 to 50 nM on SRC. In addition, the “Target residence time Tau (τ)” value on YES was “B (τ between 1 and 3 h)”; at RET [5], “A (τ between 0.2 h and 1 h)”; on SRC, “A (τ between 0.2 h and 1 h)”.
Consider `C[C@@H]1CCn2nc(-c3ccc(NC(=O)c4cccn(-c5ccc(F)cc5)c4=O)cc3F)c3c(N)ncc(c32)/C=C/CCOCCC(=O)N1`, for which, on c-Met, the Kd was less than 5 nM; the “Target residence time Tau (τ)” value was “B (τ between 1 and 3 h)”.
As to `COc1cc(-c2nn3c4c(cnc(N)c24)/C=C/CCOCCC(=O)N[C@H](C)CC3)ccc1NC(=O)c1cc2c(OC)cccc2n1C`, the IC50 in assay [1] is less than 50 nM. In assay [2], the IC50 was less than 50 nM. For the same compound, on LCK, the Kd was less than 5 nM and the “Target residence time Tau (τ)” value is reported as “C (τ 3 h)”.
`COc1cc(-c2nn3c4c(cnc(N)c24)/C=C/CCCCCC(=O)N[C@H](C)CC3)ccc1NC(=O)c1cc2c(OC)cccc2n1C`: the IC50 in assay [1] was less than 50 nM. Moreover, in [2], the half-inhibitory concentration (IC50) is less than 50 nM. On LCK, the Kd is less than 5 nM and the “Target residence time Tau (τ)” value was “C (τ 3 h)”.
In the case of `Nc1ncc2n3c(nc(-c4cnc5[nH]ccc5c4)c13)[C@@H]1CCC[C@H](C1)NC(=O)CCOCC/C=C/2`, the IC50 was less than 5 nM on RET [3] and less than 300 nM in [4]. Besides, the dissociation constant (Kd) at RET [5] was less than 5 nM. On RET [5], the “Target residence time Tau (τ)” value was “A (τ between 0.2 h and 1 h)”.
Take `Nc1ncc2n3c(nc(-c4cnc5[nH]ccc5c4)c13)[C@@H]1CC[C@H](C1)NC(=O)CCOCC/C=C/2`: the IC50 is less than 5 nM at RET [3] and less than 300 nM in assay [4]. On RET [5], this compound had a Kd of less than 5 nM.

The record behind these values is patent US20260382605A1, “REVERSIBLE MACROCYCLIC KINASE INHIBITORS” (published 2026).
